Measured values as given in US20140303092A1, “HEXADECYLOXYPROPYL CIDOFOVIR FOR THE TREATMENT OF DOUBLE-STRANDED DNA VIRUS INFECTION” (CHIMERIX, INC., priority 2011, published 2014).

Assay: Study HDP-CDV-112: mass balance and metabolite profiling of 14C-radiolabeled HDP-CDV
Settings: drug-derived metabolites

## (3-propoxy)acetic acid ester of CDV [CMX104]
  percent dose excreted in urine: 3%
